Screening results as filed in PubChem BioAssay.
ClpP mod: qHTS Assay for Activators of ClpP | purified B. subtilis ClpP, FRET peptide cleavage, 20 min | Potency, µM (series often up to 57.5 µM) | 1.9% of 340,000 active | AID 651965, 2013; active = well fitted falling curve with a large enough effect; inconclusive = small, poorly fitted or top-dose-only effect; inactive = no such curve, though single readings can be large or run the other way; note: the source files actives as falling curves though it sought activators and does not explain the sign; nearly all actives have a fitted effect of over 65% in size
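Purified B. subtilis ClpP, 10 microg/mL final in Tris/HCl pH8 with KCl, BSA, glycerol and Tween-20, cleaved an Abz/nitrotyrosine-quenched decapeptide. Fluorescence (ex 320, em 430) was read at 0 and 20 min at room temperature. Delta was normalized to 5.8 microM ADEP and DMSO/no-enzyme controls.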
miR-21 FLuc: miR-21 reporter, rising signal; HeLa miR-21 FLuc reporter, luciferase, 48 h; Potency, µM (highest dose often 38.3 µM); 340,000 tested, under 10 active; AID 2288; active = well fitted rising curve with a large enough effect; inconclusive = small, poorly fitted or top-dose-only effect; inactive = no such curve, though single readings can be large or run the other way;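 further: miR-21 action dims this reporter so a rising signal means less miR-21 action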
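Compounds were titrated across several concentrations (up to approximately 40 uM) and incubated 48 hours with HeLa miR-21-FLuc reporter cells (miR-21 target sequence downstream of FLuc, endogenous miR-21). Readout was firefly luciferase luminescence after lytic detection reagent.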
A549 tox-1: kills or reduces viability of A549 cells in Nrf2 counter-screen; A549 ARE-Fluc cells, CellTiter-Fluor viability, 18-24 h; Potency, µM (series often up to 46 µM), hits mostly inhibitors; 0.16% of 390,000 active
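Cytotoxicity counterscreen: CellTiter-Fluor fluorescence was measured in A549 ARE_Fluc cells after 18-24 h of compound exposure in a concentration series. The subsequent BugLite luminescent read reports ARE-luciferase activity.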
Nrf2 inh: blocks Nrf2 signaling. A549 ARE-Fluc reporter, luciferase luminescence, 18-24 h. Potency, µM (series often up to 46 µM), usual class: inhibitors. AID 504444. 2.1% of 360,000 active; note: nearly all actives have a fitted effect of over 60% in size
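Nrf2 function is reported as luminescence of an ARE-controlled luciferase in A549 cells. Compounds were tested at several concentrations, and a CellTiter-Fluor read on the same wells flagged cytotoxicity.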
IL-2 act: IL-2 activation; IL-2 activation reporter assay, cell-based qHTS; stimulated with anti-CD3/CD4/CD28 beads; in transgenic mouse T cells; activation, % (series mostly up to about 46 µM); 0.065% of 360,000 active; in the data active = activation above about 50%; inconclusive = mostly about 30% to 49%
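Unstimulated transgenic mouse T cells, 750 per well, received compound and, after 60 minutes, anti-CD3/anti-CD4 bead plus anti-CD28 stimulation. EGFP and DsRed were quantified after 18 hours.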
Nrf2 activator: activators of Nrf2 (ARE) signaling | AREc32 ARE-luciferase reporter (MCF7-derived line), luminescence, 24 h | Potency, µM (titrated, usually from 46.1 µM), hits mostly activators | 0.31% of 410,000 active | AID 624171; note: nearly all actives have a fitted effect of over 65% in size
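Luciferase luminescence (Steady-Glo, 30 min at room temperature) served as the read-out of ARE activation in AREc32 cells treated with compounds for 24 hr at 37 deg C.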
FLuc enzyme inh: blocks purified firefly luciferase in Nrf2 counterscreen. shares compounds with Nrf2 inh. purified firefly luciferase, luminescence inhibition. Potency, µM (series often up to 57.5 µM), most hits filed as inhibitors. 4% of 1,400 active; note: nearly all actives have a fitted effect of over 65% in size
A549 tox-2: toxic to A549 ARE-Fluc cells in Nrf2 counterscreen; shares compounds with Nrf2 inh; A549 ARE-Fluc cells, cytotoxicity counterscreen; Potency, µM (highest dose often 46.1 µM), actives largely listed as inhibitors; 2% of 1,400 active; AID 720523;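 note: cells exposed to compounds for 18 to 24 hours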
Nrf2 ARE inh: reduces Nrf2 ARE reporter signal in A549 cells; A549 ARE-firefly luciferase reporter, luminescence; shares compounds with Nrf2 inh; Potency, µM (top dose mostly 46.1 µM), hits mostly inhibitors; 74% of 1,400 active; AID 720524; note: nearly all actives have a fitted effect of over 65% in size
Of the large screens only hits and unclear results are named; the others gave an inactive call (follow-up assays come after a bar, where shown); ! = not active in a repeat. In the library only some 3.7% were active in any assay of this set; here they are far more common. Unless noted, calls come from the whole dose curve; as a rule, active = well fitted curve in the direction sought with a large enough effect; inconclusive = small, poorly fitted or top-dose-only effect, or another doubt; inactive = no such curve, though single readings can be large; an effect the other way counts as inactive or inconclusive.

COCCn1c(C)cc(O)c(C(c2ccccc2Cl)N2CCCCC2)c1=O (stereo unspecified)	none (no result: Nrf2 inh, IL-2 act)
C=CC[n+]1c(-c2ccc(C)cc2)csc1Nc1ccc(NC(C)=O)cc1	miR-21 FLuc inconclusive, Nrf2 inh 6.5µM | FLuc enzyme inh inactive | A549 tox-2 inactive | Nrf2 ARE inh 6.5µM
COc1ccc(OC)c2sc(N(Cc3cccnc3)C(C)=O)nc12	none (no result: Nrf2 inh, IL-2 act)
O=C(c1ccc2c(=O)n(CCc3ccccc3)c(=O)[nH]c2c1)N1CCN(c2ccc(Cl)cc2)CC1	miR-21 FLuc inconclusive, Nrf2 inh inconclusive (no result: IL-2 act)
COCCn1c(=O)[nH]c2cc(C(=O)N3CCN(c4ccc(Cl)cc4)CC3)ccc2c1=O	miR-21 FLuc inconclusive, Nrf2 inh 5.8µM! | FLuc enzyme inh inactive | A549 tox-2 inactive | Nrf2 ARE inh inconclusive
COc1ccc2[nH]c(=O)c3c(c2c1)OC(C)(C)C=C3	miR-21 FLuc inconclusive, Nrf2 inh 8.2µM | FLuc enzyme inh inactive | A549 tox-2 inactive | Nrf2 ARE inh 12µM
COC(C(=O)C(O)C(C)O)C1Cc2cc3cc(OC4CC(OC5CC(O)C(O)C(C)O5)C(O)C(C)O4)c(C)c(O)c3c(O)c2C(=O)C1OC1CC(OC2CC(OC3CC(O)C(OC)C(C)O3)C(O)C(C)O2)C(O)C(C)O1 (stereo unspecified)	A549 tox-1 inconclusive, Nrf2 inh 0.12µM (no result: miR-21 FLuc) | FLuc enzyme inh inactive | A549 tox-2 inactive | Nrf2 ARE inh 0.37µM
CCc1ccc(-c2nc3cc(NC(=O)c4ccc(F)cc4)ccc3o2)cc1	none (no result: IL-2 act)
CC(=O)N1c2ccc(S(=O)(=O)N3CCC(C(=O)N4CCN(c5ccc(Cl)cc5)CC4)CC3)cc2CC1C (stereo unspecified)	Nrf2 inh 5.2µM | FLuc enzyme inh inactive | A549 tox-2 inactive
CC1Cc2cc(S(=O)(=O)N3CCN(c4ccc(Cl)cc4)CC3)ccc2N1C(=O)C1CC1 (stereo unspecified)	Nrf2 inh 7.3µM | FLuc enzyme inh inactive | A549 tox-2 inactive | Nrf2 ARE inh 8.2µM
CC1Cc2cc(S(=O)(=O)N3CCN(c4cccc(Cl)c4)CC3)ccc2N1C(=O)C1CC1 (stereo unspecified)	Nrf2 inh inconclusive
Cc1cc(C)c(Cn2c(CCNC(=O)c3ccco3)nc3ccccc32)c(C)c1	none (no result: IL-2 act)
CCNC(=O)CC1C(=O)N(c2cccc(OC)c2)C(=O)N1Cc1ccc(OC)c(OC)c1 (stereo unspecified)	none (no result: IL-2 act)
COc1ccc(/C=C/c2ccncc2)cc1	Nrf2 inh inconclusive
Clc1ccc(/C=C/c2ccncc2)cc1Cl	none (no result: miR-21 FLuc, A549 tox-1, Nrf2 inh, IL-2 act, Nrf2 activator) | FLuc enzyme inh inactive | A549 tox-2 inactive | Nrf2 ARE inh inconclusive
Cc1ccc(C)c(Cn2c(=O)n(Cc3ccco3)c(=O)c3oc4ccccc4c32)c1	none (no result: IL-2 act)
Cc1cc(C(=O)CN2C(=O)c3ccccc3S2(=O)=O)c(C)n1CC1CCCO1 (stereo unspecified)	miR-21 FLuc inconclusive, Nrf2 inh 0.92µM | FLuc enzyme inh 1.3µM | A549 tox-2 inactive | Nrf2 ARE inh 1.2µM
CC(=O)N(C(C)=O)N1C(=O)C2C3c4ccccc4C(c4ccccc43)C2C1=O (stereo unspecified)	A549 tox-1 inconclusive, Nrf2 inh 9.2µM | FLuc enzyme inh inactive | A549 tox-2 inconclusive | Nrf2 ARE inh 15µM
CN1C(=O)C2C3c4ccccc4C(c4ccccc43)[C@@H]2C1=O (stereo partly specified)	none
C/C(=N/NC(=O)c1ccccn1)c1ccncc1	Nrf2 inh inconclusive
COc1ccc(C(=O)N/N=C(\C)c2ccccn2)cc1OC	A549 tox-1 inconclusive, Nrf2 inh 5.2µM, Nrf2 activator inconclusive | FLuc enzyme inh inactive | A549 tox-2 inactive
COc1ccccc1NC(=O)c1ccccc1NC(=O)c1ccccn1	ClpP mod inconclusive (no result: miR-21 FLuc)
COc1ccccc1NC(=S)NN=C(C)c1ccccn1	Nrf2 inh 1.2µM (no result: miR-21 FLuc) | FLuc enzyme inh inactive | A549 tox-2 inactive | Nrf2 ARE inh 2.6µM
C/C(=N\NC(=O)c1ccc(Cl)c(Cl)c1)c1ccccn1	A549 tox-1 inconclusive, Nrf2 inh 2.3µM (not shown: ClpP mod) | FLuc enzyme inh inconclusive | A549 tox-2 inactive
C/C(=N\NC(=O)c1cc(-c2cccs2)nc2ccccc12)c1ccccn1	A549 tox-1 inconclusive, Nrf2 inh 2.1µM | FLuc enzyme inh 9.5µM | A549 tox-2 inactive | Nrf2 ARE inh 1.8µM
CSc1ccc(CCNC(=O)c2sc3ncccc3c2-n2cccc2)cc1	none (no result: Nrf2 inh, IL-2 act)
Cc1cc(C(=O)O)c2c(=O)n(C)c(=O)n(C)c2n1	ClpP mod inconclusive (no result: IL-2 act)
CCC(=O)N1CCc2cc(CNC(=O)c3ccc(OC)cc3)ccc21	none (no result: Nrf2 inh, IL-2 act)
CCOc1ccc(OCc2ccc(C(=O)N/N=C(\C)c3ccccn3)cc2)cc1	A549 tox-1 inconclusive, Nrf2 inh inconclusive (no result: ClpP mod)
C/C(=N/NC(=O)c1ccc(C(C)(C)C)cc1)c1ccccn1	A549 tox-1 inconclusive, Nrf2 inh 5.8µM (no result: miR-21 FLuc) | FLuc enzyme inh 11µM | A549 tox-2 inconclusive | Nrf2 ARE inh inconclusive
Cn1cnc(S(=O)(=O)N2CCC(C(=O)NCc3ccccc3)CC2)c1	none (no result: Nrf2 inh, IL-2 act)
COc1cc(C2CC(=O)c3c([nH]c(C(=O)OCc4ccc(C)cc4)c3C)C2)cc(OC)c1OC (stereo unspecified)	Nrf2 inh 2.3µM (no result: IL-2 act) | FLuc enzyme inh inactive | A549 tox-2 inactive | Nrf2 ARE inh 4.6µM
COc1ccc(OC)c(C2CC(=O)c3c([nH]c(C(=O)OCc4ccc(C)cc4)c3C)C2)c1 (stereo unspecified)	none (no result: IL-2 act)
COc1cc(C2CC(=O)c3c([nH]c(C(=O)OCCOC(C)C)c3C)C2)cc(OC)c1OC (stereo unspecified)	A549 tox-1 inconclusive, Nrf2 inh 4.6µM | FLuc enzyme inh inactive | A549 tox-2 inactive | Nrf2 ARE inh 9.2µM
O=C(CSc1nccn1-c1cccc(Cl)c1)Nc1cccc(C(F)(F)F)c1	none (no result: Nrf2 inh, IL-2 act)
COc1ccc(NS(=O)(=O)c2ccc(N3CCOCC3)c(N)c2)cc1	Nrf2 inh 3.3µM (no result: miR-21 FLuc) | FLuc enzyme inh inactive | A549 tox-2 inactive | Nrf2 ARE inh 4.1µM
COc1ccc(S(=O)(=O)Nc2ccc(N3CCOCC3)cc2)cc1	Nrf2 inh inconclusive
